The values below are quoted from earlier work in patent publication US5124253A, “Dry strip element for the electrochemical detection of theophylline” (Medisense, Inc., priority 1988, dated 1992).

“And” between values parts separate entries of the source, which are not always exact repeats. Identical values can stand only once.

For this data set the following is noted: in vivo; cited from earlier work.

As for `Cn1c(=O)c2[nH]cnc2n(C)c1=O` [theophylline], the therapeutic range was 10-20 μg/ml and 55-110 μM.
